# Measured values reported in ChEMBL document CHEMBL1158305, “Bastadin 20 and bastadin O-sulfate esters from Ianthella basta: novel modulators of the Ry1R FKBP12 receptor complex” (J Nat Prod, 1996).
# Chains of the proteins cited; added tags and fusions are not shown. Lines headed by an entry give the natural chain unless they say otherwise; changes in a name come on top.
# UniProt P11716: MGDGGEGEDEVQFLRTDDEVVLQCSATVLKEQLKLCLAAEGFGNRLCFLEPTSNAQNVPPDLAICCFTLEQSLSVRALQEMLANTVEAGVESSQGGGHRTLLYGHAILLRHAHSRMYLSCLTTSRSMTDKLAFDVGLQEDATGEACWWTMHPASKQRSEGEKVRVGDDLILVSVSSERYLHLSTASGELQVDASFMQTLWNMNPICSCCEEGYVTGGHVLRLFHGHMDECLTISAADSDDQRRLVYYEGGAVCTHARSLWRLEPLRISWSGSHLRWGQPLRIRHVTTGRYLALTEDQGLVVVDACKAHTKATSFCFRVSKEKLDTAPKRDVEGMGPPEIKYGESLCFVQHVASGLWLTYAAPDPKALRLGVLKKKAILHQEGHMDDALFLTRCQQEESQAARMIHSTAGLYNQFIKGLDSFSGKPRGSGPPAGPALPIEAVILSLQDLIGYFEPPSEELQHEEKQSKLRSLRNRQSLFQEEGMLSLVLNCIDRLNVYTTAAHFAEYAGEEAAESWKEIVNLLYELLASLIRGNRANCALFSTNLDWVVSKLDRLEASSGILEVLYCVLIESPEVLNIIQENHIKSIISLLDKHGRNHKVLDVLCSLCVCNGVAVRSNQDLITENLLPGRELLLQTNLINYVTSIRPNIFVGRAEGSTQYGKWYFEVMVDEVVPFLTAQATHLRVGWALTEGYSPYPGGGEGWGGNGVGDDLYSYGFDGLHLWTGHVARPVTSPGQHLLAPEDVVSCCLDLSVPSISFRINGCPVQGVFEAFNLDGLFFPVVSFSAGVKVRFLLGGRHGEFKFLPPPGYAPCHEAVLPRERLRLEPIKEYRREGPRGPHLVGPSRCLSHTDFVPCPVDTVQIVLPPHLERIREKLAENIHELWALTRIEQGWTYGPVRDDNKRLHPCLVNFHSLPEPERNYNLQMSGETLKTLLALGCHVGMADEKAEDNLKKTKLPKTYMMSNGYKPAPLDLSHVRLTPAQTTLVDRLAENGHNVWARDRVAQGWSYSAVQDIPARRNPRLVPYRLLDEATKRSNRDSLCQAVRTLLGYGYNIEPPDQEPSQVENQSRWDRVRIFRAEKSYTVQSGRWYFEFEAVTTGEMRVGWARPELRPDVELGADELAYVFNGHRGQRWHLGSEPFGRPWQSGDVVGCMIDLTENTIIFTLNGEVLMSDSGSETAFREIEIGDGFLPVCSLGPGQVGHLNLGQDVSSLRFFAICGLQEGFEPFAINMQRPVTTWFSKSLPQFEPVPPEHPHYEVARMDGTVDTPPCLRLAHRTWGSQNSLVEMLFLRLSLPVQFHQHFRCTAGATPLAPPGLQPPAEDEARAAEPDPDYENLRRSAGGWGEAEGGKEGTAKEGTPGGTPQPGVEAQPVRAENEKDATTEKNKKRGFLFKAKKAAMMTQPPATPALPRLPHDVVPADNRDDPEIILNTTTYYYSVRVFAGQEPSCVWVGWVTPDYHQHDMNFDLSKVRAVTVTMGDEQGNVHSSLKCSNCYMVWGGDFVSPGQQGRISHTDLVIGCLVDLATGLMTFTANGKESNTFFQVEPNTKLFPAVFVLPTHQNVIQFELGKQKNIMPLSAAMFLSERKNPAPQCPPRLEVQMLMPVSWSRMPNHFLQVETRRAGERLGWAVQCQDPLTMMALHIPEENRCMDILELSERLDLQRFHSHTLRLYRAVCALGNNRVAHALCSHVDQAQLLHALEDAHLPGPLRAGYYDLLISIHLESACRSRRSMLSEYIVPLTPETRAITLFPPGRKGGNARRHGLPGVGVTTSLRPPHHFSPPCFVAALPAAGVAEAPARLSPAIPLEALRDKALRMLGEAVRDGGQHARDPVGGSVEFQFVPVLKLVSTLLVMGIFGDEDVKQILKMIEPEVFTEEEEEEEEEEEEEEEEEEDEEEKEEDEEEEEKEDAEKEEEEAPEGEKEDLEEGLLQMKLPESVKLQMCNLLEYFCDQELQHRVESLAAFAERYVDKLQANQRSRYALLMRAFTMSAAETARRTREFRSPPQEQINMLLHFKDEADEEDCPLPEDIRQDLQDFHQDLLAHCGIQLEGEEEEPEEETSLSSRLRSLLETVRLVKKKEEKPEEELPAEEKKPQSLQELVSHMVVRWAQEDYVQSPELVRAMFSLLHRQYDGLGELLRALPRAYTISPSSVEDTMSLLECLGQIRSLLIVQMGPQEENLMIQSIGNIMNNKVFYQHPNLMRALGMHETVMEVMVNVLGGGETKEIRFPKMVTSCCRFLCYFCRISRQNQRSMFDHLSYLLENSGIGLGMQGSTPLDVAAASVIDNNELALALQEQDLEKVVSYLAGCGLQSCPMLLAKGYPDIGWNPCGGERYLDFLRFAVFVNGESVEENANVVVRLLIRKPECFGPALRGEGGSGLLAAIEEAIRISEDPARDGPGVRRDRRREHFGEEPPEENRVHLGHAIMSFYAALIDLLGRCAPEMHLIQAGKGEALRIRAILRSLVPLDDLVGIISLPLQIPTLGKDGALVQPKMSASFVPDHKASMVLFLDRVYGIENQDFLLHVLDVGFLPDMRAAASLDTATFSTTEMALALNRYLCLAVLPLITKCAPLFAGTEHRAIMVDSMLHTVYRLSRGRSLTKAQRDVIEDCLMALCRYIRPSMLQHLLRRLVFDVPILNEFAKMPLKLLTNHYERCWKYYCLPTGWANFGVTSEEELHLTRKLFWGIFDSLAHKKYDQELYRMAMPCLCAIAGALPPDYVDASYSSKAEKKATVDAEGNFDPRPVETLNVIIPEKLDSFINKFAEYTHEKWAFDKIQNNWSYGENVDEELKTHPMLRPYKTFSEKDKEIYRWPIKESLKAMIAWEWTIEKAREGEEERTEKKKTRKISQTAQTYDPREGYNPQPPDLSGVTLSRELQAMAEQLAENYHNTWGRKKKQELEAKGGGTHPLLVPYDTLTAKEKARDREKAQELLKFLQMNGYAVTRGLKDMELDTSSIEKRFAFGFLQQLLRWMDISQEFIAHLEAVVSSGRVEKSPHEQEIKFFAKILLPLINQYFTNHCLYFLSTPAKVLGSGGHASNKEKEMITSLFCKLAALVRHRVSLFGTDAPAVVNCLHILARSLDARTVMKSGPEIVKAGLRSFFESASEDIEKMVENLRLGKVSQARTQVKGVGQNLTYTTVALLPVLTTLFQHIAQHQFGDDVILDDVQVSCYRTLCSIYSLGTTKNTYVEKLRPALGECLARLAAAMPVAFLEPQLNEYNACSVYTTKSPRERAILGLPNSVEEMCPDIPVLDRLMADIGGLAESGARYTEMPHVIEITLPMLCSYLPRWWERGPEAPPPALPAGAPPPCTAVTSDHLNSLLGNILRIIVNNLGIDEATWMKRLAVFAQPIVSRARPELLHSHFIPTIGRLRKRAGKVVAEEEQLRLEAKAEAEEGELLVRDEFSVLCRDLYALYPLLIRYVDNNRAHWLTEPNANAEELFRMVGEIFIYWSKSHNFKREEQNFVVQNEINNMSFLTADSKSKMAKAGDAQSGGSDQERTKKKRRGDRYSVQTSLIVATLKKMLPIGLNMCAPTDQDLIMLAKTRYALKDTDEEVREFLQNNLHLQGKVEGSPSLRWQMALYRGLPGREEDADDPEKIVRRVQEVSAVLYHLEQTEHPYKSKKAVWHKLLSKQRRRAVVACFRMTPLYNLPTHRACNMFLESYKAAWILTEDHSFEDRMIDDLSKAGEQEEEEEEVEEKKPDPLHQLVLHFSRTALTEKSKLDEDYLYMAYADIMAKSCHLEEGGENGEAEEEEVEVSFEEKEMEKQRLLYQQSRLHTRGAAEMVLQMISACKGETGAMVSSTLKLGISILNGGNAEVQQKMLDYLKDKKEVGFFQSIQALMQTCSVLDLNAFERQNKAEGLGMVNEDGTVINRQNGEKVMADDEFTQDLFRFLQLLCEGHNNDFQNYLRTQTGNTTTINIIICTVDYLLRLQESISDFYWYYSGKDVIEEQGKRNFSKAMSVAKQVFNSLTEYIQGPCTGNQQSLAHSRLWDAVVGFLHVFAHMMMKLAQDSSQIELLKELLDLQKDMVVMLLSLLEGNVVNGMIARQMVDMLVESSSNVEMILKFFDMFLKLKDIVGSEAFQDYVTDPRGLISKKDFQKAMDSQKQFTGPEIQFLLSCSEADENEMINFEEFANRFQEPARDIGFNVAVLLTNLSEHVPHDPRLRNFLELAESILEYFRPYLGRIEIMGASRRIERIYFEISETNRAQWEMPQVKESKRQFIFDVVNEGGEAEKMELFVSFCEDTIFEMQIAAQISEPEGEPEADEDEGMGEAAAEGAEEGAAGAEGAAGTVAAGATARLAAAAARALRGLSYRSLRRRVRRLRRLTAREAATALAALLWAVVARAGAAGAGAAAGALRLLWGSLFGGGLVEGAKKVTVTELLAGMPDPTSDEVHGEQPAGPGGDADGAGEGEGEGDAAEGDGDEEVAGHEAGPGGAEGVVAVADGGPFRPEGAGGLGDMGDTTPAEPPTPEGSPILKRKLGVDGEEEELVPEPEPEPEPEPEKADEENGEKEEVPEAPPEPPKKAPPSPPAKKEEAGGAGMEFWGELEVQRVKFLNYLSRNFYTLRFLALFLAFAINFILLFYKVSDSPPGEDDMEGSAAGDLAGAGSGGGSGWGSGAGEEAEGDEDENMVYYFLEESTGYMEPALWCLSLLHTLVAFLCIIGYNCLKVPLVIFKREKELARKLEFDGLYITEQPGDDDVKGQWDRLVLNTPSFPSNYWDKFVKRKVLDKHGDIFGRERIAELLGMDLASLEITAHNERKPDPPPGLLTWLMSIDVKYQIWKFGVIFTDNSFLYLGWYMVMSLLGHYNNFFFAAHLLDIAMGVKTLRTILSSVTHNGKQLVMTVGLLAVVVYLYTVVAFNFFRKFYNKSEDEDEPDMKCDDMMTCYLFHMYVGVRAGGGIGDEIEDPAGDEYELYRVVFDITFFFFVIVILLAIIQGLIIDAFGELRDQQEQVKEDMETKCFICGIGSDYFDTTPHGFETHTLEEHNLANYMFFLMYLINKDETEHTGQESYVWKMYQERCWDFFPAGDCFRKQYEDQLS
# Biological target: Ryanodine receptor 1 (Oryctolagus cuniculus, UniProt P11716)
# Assay: Displacement of [3H]ryanodine from Ry1R/FKBP12 receptor complex in rabbit sarcoplasmic reticulum
smiles,measurement,value
O=C1NCCc2ccc(c(Br)c2)Oc2cc(cc(Br)c2O)CCNC(=O)/C(=N/O)Cc2cc(Br)c(O)c(c2)Oc2ccc(cc2Br)C/C1=N\O,EC50,20.6 µM
